Earlier results on 1 compound are cited in article PMC2374394, “Relationships between hydrophobicity, reactivity, accumulation and peripheral nerve toxicity of a series of platinum drugs” (British Journal of Cancer, 2000).

In the data set the test system is patients. The settings on record: ref Machover et al, 1996; cited from earlier work.

`O=C1[O][Pt-2]2([NH2+]C3CCCC[C@H]3[NH2+]2)[O]C1=O` (stereo partly drawn) [Oxaliplatin, R,R-(DACH)Pt(oxalato)]: the “Incidence of neurotoxicity in patients % (95% CI)” value is recorded as 97 (92-99) %.
